Experiments:
[1] = target: T1, full-length B-Catenin (Uniprot ID P35222) (Homo sapiens, UniProt P35222); experiment: biochemical; assay type: binding; conditions: beta-Catenin FP IC50 (nM), competition fluorescence polarization
T1 construct: 10 nM full-length B-Catenin (Uniprot ID P35222)

Protein sequences, listed by entry. Tags and fused reporters are not part of them.
UniProt P35222, whole entry: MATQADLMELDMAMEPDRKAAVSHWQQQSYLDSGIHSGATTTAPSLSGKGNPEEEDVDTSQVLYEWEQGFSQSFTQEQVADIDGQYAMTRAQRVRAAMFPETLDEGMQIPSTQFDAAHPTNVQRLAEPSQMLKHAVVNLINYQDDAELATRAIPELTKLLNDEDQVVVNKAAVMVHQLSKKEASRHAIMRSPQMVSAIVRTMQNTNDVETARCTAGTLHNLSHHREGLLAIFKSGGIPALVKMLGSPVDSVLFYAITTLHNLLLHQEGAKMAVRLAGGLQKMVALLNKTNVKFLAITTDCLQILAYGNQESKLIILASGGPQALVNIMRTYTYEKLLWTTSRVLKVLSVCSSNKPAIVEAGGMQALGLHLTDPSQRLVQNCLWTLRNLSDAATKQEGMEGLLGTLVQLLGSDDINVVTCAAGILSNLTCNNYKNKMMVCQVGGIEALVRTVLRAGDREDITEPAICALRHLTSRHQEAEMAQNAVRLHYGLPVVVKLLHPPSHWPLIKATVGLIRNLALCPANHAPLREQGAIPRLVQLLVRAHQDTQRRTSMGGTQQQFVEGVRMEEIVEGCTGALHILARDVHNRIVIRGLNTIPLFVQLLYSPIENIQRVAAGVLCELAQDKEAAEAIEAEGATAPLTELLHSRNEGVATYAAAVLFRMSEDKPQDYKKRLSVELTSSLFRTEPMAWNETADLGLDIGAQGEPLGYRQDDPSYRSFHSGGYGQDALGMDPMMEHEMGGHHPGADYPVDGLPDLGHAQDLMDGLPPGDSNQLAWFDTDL

[2] = target: beta-catenin/TCF4 interaction (Homo sapiens, UniProt P35222); experiment: cell-based; parameters: host or cells: HEK293; conditions: NanoBRET Abs IC50 (uM)

SMILES: CC(=O)N1CCC[C@]12CC=CCCCC1(CCCC=CCCCOC(=O)N3CC[C@@]4(C3)NC(=O)[C@H](CCCCNC(=O)CC[C@@H](C(=O)N[C@@H](C)C(N)=O)NC(=O)[C@H](Cc3csc5ccccc35)NC(=O)[C@H](Cc3ccsc3)NC4=O)NC(=O)[C@H](Cc3ccccc3)NC(=O)[C@H](C)NC(=O)C(C)(C)NC(=O)[C@H](Cc3cccc(C(=O)O)c3)NC(=O)[C@H](CCCC(=O)O)NC1=O)NC(=O)[C@H](CC(C)(C)C)NC(=O)[C@H](CC(=O)O)NC2=O (relative stereo) [I-548, Ac-PL3-Asp-Npg-B5-Aad-3COOHF-Aib-Ala-Phe-Lys*3-PyrS2-3Thi-BztA-GlnR*3-Ala-NH2]
- IC50 [1]: 200 to 750 nM
- IC50 ([2]; absolute IC50): > 10 µM

SMILES: CC(=O)N1CCC[C@]12CC=CCCCC1(CCCC=CCCCOC(=O)N3CC[C@@]4(C3)NC(=O)[C@H](CCCCNC(=O)CC[C@@H](C(=O)N[C@@H](C)C(N)=O)NC(=O)[C@H](Cc3csc5ccccc35)NC(=O)[C@H](Cc3ccsc3)NC4=O)NC(=O)[C@H](Cc3ccccc3)NC(=O)[C@H](C)NC(=O)C(C)(C)NC(=O)[C@H](Cc3cccc(C(=O)O)c3)NC(=O)[C@H](CCC(=O)O)NC1=O)NC(=O)[C@H](CC(C)(C)C)NC(=O)[C@H](CCCC(=O)O)NC2=O (relative stereo) [I-549, Ac-PL3-Aad-Npg-B5-Glu-3COOHF-Aib-Ala-Phe-Lys*3-PyrS2-3Thi-BztA-GlnR*3-Ala-NH2]
- IC50 [1]: > 1000 nM
- IC50 ([2]; absolute IC50): > 10 µM

SMILES: CC(=O)N1CCC[C@]12CC=CCCCC1(CCCC=CCCCOC(=O)N3CC[C@@]4(C3)NC(=O)[C@H](CCCCNC(=O)CC[C@@H](C(=O)N[C@@H](C)C(N)=O)NC(=O)[C@H](Cc3csc5ccccc35)NC(=O)[C@H](Cc3ccsc3)NC4=O)NC(=O)[C@H](Cc3ccccc3)NC(=O)[C@H](C)NC(=O)C(C)(C)NC(=O)[C@H](Cc3cccc(C(=O)O)c3)NC(=O)[C@H](CCCC(=O)O)NC1=O)NC(=O)[C@H](CC(C)(C)C)NC(=O)[C@H](CCC(=O)O)NC2=O (relative stereo) [I-550, Ac-PL3-Glu-Npg-B5-Aad-3COOHF-Aib-Ala-Phe-Lys*3-PyrS2-3Thi-BztA-GlnR*3-Ala-NH2]
- IC50 [1]: > 1000 nM
- IC50 ([2]; absolute IC50): > 10 µM

SMILES: CC(=O)N1CCC[C@]12CC=CCCCC1(CCCC=CCCCOC(=O)N3CC[C@@]4(C3)NC(=O)[C@H](CCCCNC(=O)CC[C@@H](C(=O)N[C@@H](C)C(N)=O)NC(=O)[C@H](Cc3csc5ccccc35)NC(=O)[C@H](Cc3ccsc3)NC4=O)NC(=O)[C@H](Cc3ccccc3)NC(=O)[C@H](C)NC(=O)C(C)(C)NC(=O)[C@H](Cc3cccc(C(=O)O)c3)NC(=O)[C@H](CCCC(=O)O)NC1=O)NC(=O)[C@H](CC(C)(C)C)NC(=O)[C@H](CCCC(=O)O)NC2=O (relative stereo) [I-551, Ac-PL3-Aad-Npg-B5-Aad-3COOHF-Aib-Ala-Phe-Lys*3-PyrS2-3Thi-BztA-GlnR*3-Ala-NH2]
- IC50 [1]: > 1000 nM
- IC50 ([2]; absolute IC50): > 10 µM

SMILES: CC(=O)N1CCC[C@]12CC=CCCCC1(CCCC=CCCCOC(=O)N3CC[C@@]4(C3)NC(=O)[C@H](CCCCNC(=O)CC[C@@H](C(=O)N[C@@H](C)C(N)=O)NC(=O)[C@H](Cc3csc5ccccc35)NC(=O)[C@H](Cc3ccsc3)NC4=O)NC(=O)[C@H](Cc3ccccc3)NC(=O)[C@H](C)NC(=O)C(C)(C)NC(=O)[C@H](CCC(=O)O)NC(=O)[C@H](CCC(=O)O)NC1=O)NC(=O)[C@H](CC(C)(C)C)NC(=O)[C@H](CCCC(=O)O)NC2=O (relative stereo) [I-553, Ac-PL3-Aad-Npg-B5-Glu-Glu-Aib-Ala-Phe-Lys*3-PyrS2-3Thi-BztA-GlnR*3-Ala-NH2]
- IC50 [1]: > 1000 nM
- IC50 ([2]; absolute IC50): > 10 µM

SMILES: CC(=O)N1CCC[C@]12CC=CCCCC1(CCCC=CCCCOC(=O)N3CC[C@@]4(C3)NC(=O)[C@H](CCCCNC(=O)CC[C@@H](C(=O)N[C@@H](C)C(N)=O)NC(=O)[C@H](Cc3csc5ccccc35)NC(=O)[C@H](Cc3ccsc3)NC4=O)NC(=O)[C@H](Cc3ccccc3)NC(=O)[C@H](C)NC(=O)C(C)(C)NC(=O)[C@H](CC(=O)O)NC(=O)[C@H](CCC(=O)O)NC1=O)NC(=O)[C@H](CC(C)(C)C)NC(=O)[C@H](CCC(=O)O)NC2=O (relative stereo) [I-554, Ac-PL3-Glu-Npg-B5-Glu-Asp-Aib-Ala-Phe-Lys*3-PyrS2-3Thi-BztA-GlnR*3-Ala-NH2]
- IC50 [1]: > 1000 nM
- IC50 ([2]; absolute IC50): > 10 µM

SMILES: CC(=O)N1CCC[C@]12CC=CCCCC1(CCCC=CCCCOC(=O)N3CC[C@@]4(C3)NC(=O)[C@H](CCCCNC(=O)CC[C@@H](C(=O)N[C@@H](C)C(N)=O)NC(=O)[C@H](Cc3csc5ccccc35)NC(=O)[C@H](Cc3ccsc3)NC4=O)NC(=O)[C@H](Cc3ccccc3)NC(=O)[C@H](C)NC(=O)C(C)(C)NC(=O)[C@H](CC(=O)O)NC(=O)[C@H](CCC(=O)O)NC1=O)NC(=O)[C@H](CC(C)(C)C)NC(=O)[C@H](CCCC(=O)O)NC2=O (relative stereo) [I-555, Ac-PL3-Aad-Npg-B5-Glu-Asp-Aib-Ala-Phe-Lys*3-PyrS2-3Thi-BztA-GlnR*3-Ala-NH2]
- IC50 [1]: > 1000 nM
- IC50 ([2]; absolute IC50): > 10 µM

SMILES: CC(=O)N1CCC[C@]12CC=CCCCC1(CCCC=CCCCOC(=O)N3CC[C@@]4(C3)NC(=O)[C@H](CCCCNC(=O)CC[C@@H](C(=O)N[C@@H](C)C(N)=O)NC(=O)[C@H](Cc3csc5ccccc35)NC(=O)[C@H](Cc3ccsc3)NC4=O)NC(=O)[C@H](Cc3ccccc3)NC(=O)[C@H](C)NC(=O)C(C)(C)NC(=O)[C@H](CCC(=O)O)NC(=O)[C@H](CCCC(=O)O)NC1=O)NC(=O)[C@H](CC(C)(C)C)NC(=O)[C@H](CCCC(=O)O)NC2=O (relative stereo) [I-556, Ac-PL3-Aad-Npg-B5-Aad-Glu-Aib-Ala-Phe-Lys*3-PyrS2-3Thi-BztA-GlnR*3-Ala-NH2]
- IC50 [1]: > 1000 nM
- IC50 ([2]; absolute IC50): > 10 µM

SMILES: C[C@H](NC(=O)[C@@H]1CCC(=O)NCCCC[C@@H]2NC(=O)[C@H](Cc3ccccc3)NC(=O)[C@H](C)NC(=O)C(C)(C)NC(=O)[C@H](Cc3cccc(C(=O)O)c3)NC(=O)[C@H](CC(=O)O)NC(=O)[C@](C)(NC(=O)[C@@H]3CN(Cc4ccccc4)CCCCCC(=O)N4CCC[C@@]4(C)C(=O)N[C@@H](CC(=O)O)C(=O)N3)CCCCCCCCOC(=O)N3CC[C@@](C3)(NC2=O)C(=O)N[C@@H](Cc2ccsc2)C(=O)N[C@@H](Cc2csc3ccccc23)C(=O)N1)C(N)=O (relative stereo) [I-562, 4pentenyl-MePro-Asp-[Bn][Allyl]Dap-R5-Asp-3COOHF-Aib-Ala-Phe-Lys*3-PyrS2-3Thi-BztA-GlnR*3-Ala-NH2]
- IC50 [1]: 50 to 200 nM
- IC50 ([2]; absolute IC50): > 10 µM

SMILES: C[C@H](NC(=O)[C@@H]1CCC(=O)NCCCC[C@@H]2NC(=O)[C@H](Cc3ccccc3)NC(=O)[C@H](C)NC(=O)C(C)(C)NC(=O)[C@H](Cc3cccc(C(=O)O)c3)NC(=O)[C@H](CC(=O)O)NC(=O)[C@](C)(NC(=O)[C@@H]3CN(C(=O)c4ccccc4)CCCCCC(=O)N4CCC[C@@]4(C)C(=O)N[C@@H](CC(=O)O)C(=O)N3)CCCCCCCCOC(=O)N3CC[C@@](C3)(NC2=O)C(=O)N[C@@H](Cc2ccsc2)C(=O)N[C@@H](Cc2csc3ccccc23)C(=O)N1)C(N)=O (relative stereo) [I-563, 4pentenyl-MePro-Asp-[Phc][Allyl]Dap-R5-Asp-3COOHF-Aib-Ala-Phe-Lys*3-PyrS2-3Thi-BztA-GlnR*3-Ala-NH2]
- IC50 [1]: < 50 nM
- IC50 ([2]; absolute IC50): > 10 µM

SMILES: C[C@H](NC(=O)[C@@H]1CCC(=O)NCCCC[C@@H]2NC(=O)[C@H](Cc3ccccc3)NC(=O)[C@H](C)NC(=O)C(C)(C)NC(=O)[C@H](Cc3cccc(C(=O)O)c3)NC(=O)[C@H](CC(=O)O)NC(=O)[C@](C)(NC(=O)[C@@H]3CN(C(=O)C(C)(C)C)CCCCCCC(=O)N4CCC[C@@]4(C)C(=O)N[C@@H](CC(=O)O)C(=O)N3)CCCCCCCCOC(=O)N3CC[C@@](C3)(NC2=O)C(=O)N[C@@H](Cc2ccsc2)C(=O)N[C@@H](Cc2csc3ccccc23)C(=O)N1)C(N)=O (relative stereo) [I-564, 5hexenyl-MePro-Asp-[Piv][Allyl]Dap-R5-Asp-3COOHF-Aib-Ala-Phe-Lys*3-PyrS2-3Thi-BztA-GlnR*3-Ala-NH2]
- IC50 [1]: 50 to 200 nM
- IC50 ([2]; absolute IC50): > 10 µM

SMILES: C[C@H](NC(=O)[C@@H]1CCC(=O)NCCCC[C@@H]2NC(=O)[C@H](Cc3ccccc3)NC(=O)[C@H](C)NC(=O)C(C)(C)NC(=O)[C@H](Cc3cccc(C(=O)O)c3)NC(=O)[C@H](CC(=O)O)NC(=O)[C@](C)(NC(=O)[C@@H]3CN(C(=O)C4CCCCC4)CCCCCCC(=O)N4CCC[C@@]4(C)C(=O)N[C@@H](CC(=O)O)C(=O)N3)CCCCCCCCOC(=O)N3CC[C@@](C3)(NC2=O)C(=O)N[C@@H](Cc2ccsc2)C(=O)N[C@@H](Cc2csc3ccccc23)C(=O)N1)C(N)=O (relative stereo) [I-565, 5hexenyl-MePro-Asp-[CyCO][Allyl]Dap-R5-Asp-3COOHF-Aib-Ala-Phe-Lys*3-PyrS2-3Thi-BztA-GlnR*3-Ala-NH2]
- IC50 [1]: < 50 nM
- IC50 ([2]; absolute IC50): > 10 µM

SMILES: CC(=O)N1CCC[C@]12CC=CCCCC1(CCCC=CCCCOC(=O)N3CC[C@@]4(C3)NC(=O)[C@@H](CCCCNC(=O)CC[C@@H](C(N)=O)NC(=O)[C@H](Cc3csc5ccccc35)NC(=O)[C@H](Cc3ccsc3)NC4=O)NC(=O)[C@H](Cc3ccccc3)NC(=O)[C@H](C)NC(=O)[C@H](C)NC(=O)[C@H](CC(=O)O)NC(=O)[C@H](CC(=O)O)NC1=O)NC(=O)[C@H](CC(C)C)NC(=O)[C@H](CC(=O)O)NC2=O (single isomer, unassigned) [I-1, Ac-PL3-Asp-Leu-B5-Asp-Asp-Ala-Ala-Phe-dLys*3-PyrS2-3Thi-BztA-GlnR*3-NH2]
- IC50 [1]: < 50 nM
- IC50 [2]: > 10 µM

SMILES: CC(=O)N1CCC[C@]12CC=CCCCC1(CCCC=CCCCOC(=O)N3CC[C@@]4(C3)NC(=O)[C@H](CCCCNC(=O)CC[C@@H](C(N)=O)NC(=O)[C@H](Cc3csc5ccccc35)NC(=O)[C@H](Cc3ccsc3)NC4=O)NC(=O)[C@H](Cc3ccccc3)NC(=O)[C@H](C)NC(=O)[C@H](C)NC(=O)[C@H](CC(=O)O)NC(=O)[C@H](CC(=O)O)NC1=O)NC(=O)[C@H](CC(C)C)NC(=O)[C@H](CC(=O)O)NC2=O (single isomer, unassigned) [I-3, Ac-PL3-Asp-Leu-B5-Asp-Asp-Ala-Ala-Phe-Lys*3-PyrS2-3Thi-BztA-GlnR*3-NH2]
- IC50 [1]: < 50 nM
- IC50 [2]: 3 to 10 µM

— patent publication US20240360179A1, “STAPLED PEPTIDES AND METHODS THEREOF” (FOG PHARMACEUTICALS, INC., priority 2021, published 2024)
